Measured values taken from patent publication US20050147555A1 (BRACCO SUISSE, published 2005).
One block for each binder: values may come before it.

Protein sequences, listed by entry. Tags and fused reporters are not part of them. Residues count along the entry.
UniProt P35968, 20-1356: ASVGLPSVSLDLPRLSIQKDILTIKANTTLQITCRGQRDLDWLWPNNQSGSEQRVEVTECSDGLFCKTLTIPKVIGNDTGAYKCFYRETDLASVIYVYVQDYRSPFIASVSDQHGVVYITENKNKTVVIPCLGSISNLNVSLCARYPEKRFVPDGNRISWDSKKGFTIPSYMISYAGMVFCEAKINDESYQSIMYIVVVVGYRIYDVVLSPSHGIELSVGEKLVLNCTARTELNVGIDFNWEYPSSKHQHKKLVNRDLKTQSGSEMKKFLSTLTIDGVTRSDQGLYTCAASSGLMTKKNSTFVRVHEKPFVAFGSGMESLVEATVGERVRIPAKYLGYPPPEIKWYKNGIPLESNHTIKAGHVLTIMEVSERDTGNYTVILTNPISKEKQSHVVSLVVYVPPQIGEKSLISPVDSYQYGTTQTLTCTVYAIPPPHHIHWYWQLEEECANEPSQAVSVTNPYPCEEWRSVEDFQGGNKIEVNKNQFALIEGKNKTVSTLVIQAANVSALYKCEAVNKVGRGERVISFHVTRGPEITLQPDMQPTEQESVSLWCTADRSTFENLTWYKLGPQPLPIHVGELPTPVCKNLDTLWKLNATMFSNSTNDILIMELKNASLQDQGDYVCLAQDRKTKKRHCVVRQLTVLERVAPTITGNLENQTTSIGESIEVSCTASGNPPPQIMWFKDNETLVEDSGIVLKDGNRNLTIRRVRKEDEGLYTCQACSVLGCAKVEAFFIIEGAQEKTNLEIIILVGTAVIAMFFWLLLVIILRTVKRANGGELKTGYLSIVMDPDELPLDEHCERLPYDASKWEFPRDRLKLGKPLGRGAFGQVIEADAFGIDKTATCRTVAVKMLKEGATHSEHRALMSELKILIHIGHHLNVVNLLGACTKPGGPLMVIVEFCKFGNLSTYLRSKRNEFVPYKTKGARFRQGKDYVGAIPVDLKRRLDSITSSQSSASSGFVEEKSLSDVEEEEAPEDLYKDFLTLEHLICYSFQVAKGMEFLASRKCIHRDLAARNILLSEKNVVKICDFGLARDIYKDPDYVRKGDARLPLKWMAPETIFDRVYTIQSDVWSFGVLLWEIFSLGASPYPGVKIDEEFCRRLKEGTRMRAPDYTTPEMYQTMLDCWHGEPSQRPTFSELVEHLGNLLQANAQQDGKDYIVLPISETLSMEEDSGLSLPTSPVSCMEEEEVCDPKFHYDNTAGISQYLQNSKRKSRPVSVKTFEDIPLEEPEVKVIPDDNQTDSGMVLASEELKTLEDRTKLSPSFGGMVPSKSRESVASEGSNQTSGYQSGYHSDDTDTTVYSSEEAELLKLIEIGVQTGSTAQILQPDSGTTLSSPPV
UniProt P35968, 20-764, stated change not applied: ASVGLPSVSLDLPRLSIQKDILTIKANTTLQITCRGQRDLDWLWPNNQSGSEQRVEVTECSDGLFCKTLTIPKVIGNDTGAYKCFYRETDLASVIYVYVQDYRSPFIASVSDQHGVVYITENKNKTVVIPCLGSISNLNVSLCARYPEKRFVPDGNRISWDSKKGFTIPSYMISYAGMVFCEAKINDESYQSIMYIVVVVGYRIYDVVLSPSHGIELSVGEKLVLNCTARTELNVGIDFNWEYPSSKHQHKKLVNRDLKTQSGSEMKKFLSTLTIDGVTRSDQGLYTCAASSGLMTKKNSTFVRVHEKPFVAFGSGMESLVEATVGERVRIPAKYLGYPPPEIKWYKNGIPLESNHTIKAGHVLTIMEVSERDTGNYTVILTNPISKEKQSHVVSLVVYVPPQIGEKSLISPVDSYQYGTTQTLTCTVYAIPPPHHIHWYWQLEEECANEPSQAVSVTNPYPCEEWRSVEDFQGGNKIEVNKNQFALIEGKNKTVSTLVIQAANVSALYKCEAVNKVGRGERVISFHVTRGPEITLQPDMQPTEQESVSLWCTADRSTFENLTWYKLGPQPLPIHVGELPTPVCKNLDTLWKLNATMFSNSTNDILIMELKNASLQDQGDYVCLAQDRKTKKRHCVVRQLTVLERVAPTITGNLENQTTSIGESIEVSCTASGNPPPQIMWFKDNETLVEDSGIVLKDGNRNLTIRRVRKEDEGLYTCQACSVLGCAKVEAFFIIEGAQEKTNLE

Tests used:
[1] = target: T1, KDR (VEGFR-2, Flk-1), full-length receptor on cells (human, UniProt P35968 20-1356); assay: saturation binding of peptide/neutravidin-HRP complex to KDR-transfected 293H cells; P6-F-XB, one experiment
T1 construct: whole, on cells; endogenous on HUVECs in the functional assays; also called VEGF receptor 2

[2] = target: T2, KDR-Fc (chimeric fusion of Ig Fc region with human KDR, R&D Systems #357-KD-050) (human, UniProt P35968 20-764); assay: fluorescence polarisation, fluoresceinated monodentate peptide against KDRFc
T2 construct: Bought; also called KDR Fc fusion; not shown: Ig Fc region of the bought chimera

[3] = target: T1, KDR (VEGFR-2, Flk-1), full-length …; assay: displacement of P12-XB/streptavidin-HRP complex (5.5 nM) from KDR-expressing cells
[4] = target: T1, KDR (VEGFR-2, Flk-1), full-length …; assay: saturation binding of peptide/neutravidin-HRP complex, KDR- minus mock-transfected 293H cells
Protocol: After incubation at room temperature, plates were transferred to 4° C. for another half-hour incubation.

B1: P6-F-XB on neutravidin-HRP (other)
peptide: VCWEDSWGGEVCFRYDPGGGK
modifications: Ac-; C2-C12 disulfide; K21(Biotin-JJ); -NH2
Kd [1]: 6.94 nM

B2: P6, fluoresceinated monodentate peptide (peptide)
peptide: GDSRVCWEDSWGGEVCFRYDPGGGK
modifications: fluorescein on the C-terminal lysine; C-terminal amide
Kd [2]: 69 nM

B6: P5, fluoresceinated monodentate peptide (peptide)
peptide: AGPKWCEEDWYYCMITGTGGGK
modifications: fluorescein on the C-terminal lysine; C-terminal amide
Kd [2]: 280 nM

Continued, values first:

IC50 [3]: 13 nM
B3: P12-G (peptide)
peptide: AGPTWCEDDWYYCWLFGTGGGK
modifications: N-acetyl; Cys6-Cys13 disulfide; C-terminal amide

Kd [4]: 4.03 nM
B4: P12-XB (4X) on neutravidin-HRP (other)
peptide: AGPTWCEDDWYYCWLFGTGGGK
modifications: Ac-; C6-C13 disulfide; K22(Biotin-JJ); -NH2
notes: Peptides held on the four biotin sites of neutravidin-HRP; also called tetrameric P12-XB; P12-XB Tetramer

Kd [4]: 1.81 nM
B5: P13-XB (4X) on neutravidin-HRP (other)
peptide: AQDWYYDEILSMADQLRHAFLSGGGGGK
modifications: Ac-; K28(Biotin-JJ); -NH2
notes: Peptides held on the four biotin sites of neutravidin-HRP; also called tetrameric P13-XB; P13-XB Tetramer
